For experiment [1], the target named is Nociceptin receptor (Homo sapiens, UniProt P41146). Briefly: Receptor Binding Assay.
Experiment [2] concerns the target Mu-type opioid receptor (Homo sapiens, UniProt P35372). The experiment can be described thus: Receptor Binding Assay.

Chains of the proteins cited; added tags and fusions are not shown. Lines headed by an entry give the natural chain unless they say otherwise; changes in a name come on top.
UniProt P41146: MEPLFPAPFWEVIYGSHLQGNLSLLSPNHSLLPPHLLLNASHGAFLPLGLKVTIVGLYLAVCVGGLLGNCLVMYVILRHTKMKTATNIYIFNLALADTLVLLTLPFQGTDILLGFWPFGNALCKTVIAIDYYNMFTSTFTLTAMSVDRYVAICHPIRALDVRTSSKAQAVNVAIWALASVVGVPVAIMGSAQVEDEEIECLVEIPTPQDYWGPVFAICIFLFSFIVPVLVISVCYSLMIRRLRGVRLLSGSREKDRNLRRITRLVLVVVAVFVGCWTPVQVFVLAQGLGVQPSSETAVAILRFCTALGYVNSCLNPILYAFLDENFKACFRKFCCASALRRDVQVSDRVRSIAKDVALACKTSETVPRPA
UniProt P35372, whole entry, looked up: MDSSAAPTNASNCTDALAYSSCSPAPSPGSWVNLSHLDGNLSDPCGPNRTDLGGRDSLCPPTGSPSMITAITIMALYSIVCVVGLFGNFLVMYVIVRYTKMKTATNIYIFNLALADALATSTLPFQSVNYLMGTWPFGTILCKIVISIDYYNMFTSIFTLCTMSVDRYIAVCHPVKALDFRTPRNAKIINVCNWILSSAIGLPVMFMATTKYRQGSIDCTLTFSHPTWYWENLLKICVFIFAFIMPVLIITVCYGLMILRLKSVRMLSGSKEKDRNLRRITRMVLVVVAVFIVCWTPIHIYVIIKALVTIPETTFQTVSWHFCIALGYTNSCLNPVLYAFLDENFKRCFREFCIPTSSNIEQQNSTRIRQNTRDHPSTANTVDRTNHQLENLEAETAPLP

In general, Ki refers to a measure of affinity in units of concentration, obtained from inhibition or displacement. A low value points to higher affinity.

In experiment [1], `CN(C)[C@]1(c2ccccc2)CC[C@]2(CC1)CN(CCCC#N)C(=O)N2CC1CCC1` registered an inhibition constant Ki of 1.6 nM. The compound `CN(C)[C@]1(c2ccccc2)CC[C@]2(CC1)CN(CC(C)(C)C#N)C(=O)N2CC1(F)CC1` registered a Ki in experiment [2] of 2920 nM. As for `CN(C)[C@]1(c2ccccc2)CC[C@]2(CC1)CN(CCCC(N)=O)C(=O)N2CC1CCC1`, the Ki was found to be 2.3 nM in experiment [1] and 80.5 nM in experiment [2].

The record behind these values is BindingDB's records for US10793556.
